Structures are written as SMILES. This list holds what a sample rich in lowest values left over.

The test system of the experiment is human monocyte-derived macrophages (M0). Description: cell shape (eccentricity) Z-score vs DMSO control; higher = more elongated, M2-like morphology. The settings on record: 20 µM; 24 h; macrophage state: M0 (M-CSF). The protocol: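 Primary human monocyte-derived macrophages (M-CSF differentiated, pooled from 4 donors, 5000 cells/well in 384-well plates) were treated with each compound at 20 uM for 24 h, then fixed and stained with phalloidin/DAPI and imaged on an Opera Phenix (6 fields, about 1000 cells/well). Cell eccentricity was measured with CellProfiler, and a Z-score (t-test) was computed against 4 DMSO control wells in the same row. Negative values mean round (M1-like) cells and positive values mean elongated (M2-like) cells; the paper's hit cutoffs are Z <= -4 (M1) and Z >= 6 (M2). Scale: negative = round, M1-like.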
For the compound `NCc1ccc(OCCCc2sc(-c3ccc4c(c3)/C(=N/Nc3nc5ccccc5s3)CCC4)nc2C(=O)O)cc1`, the “cell shape (Z-score)” value is 3.19.
